The values that follow are results of earlier work, collected in paper PMC10946813, “Lipophilicity Modulations by Fluorination Correlate with Membrane Partitioning” (Angewandte Chemie (International Ed. in English), 2023).

For this series the following is noted: reference value used in the logP determination; no reference given; cited from earlier work.

As to 2-fluoroethanol, the logP of reference compound was -0.75.
